Test results published in patent US8937167B2 (Washington University, priority 2009, dated 2015).

Chains of the proteins cited; added tags and fusions are not shown.
UniProt Q1R2J4, entry or part of it: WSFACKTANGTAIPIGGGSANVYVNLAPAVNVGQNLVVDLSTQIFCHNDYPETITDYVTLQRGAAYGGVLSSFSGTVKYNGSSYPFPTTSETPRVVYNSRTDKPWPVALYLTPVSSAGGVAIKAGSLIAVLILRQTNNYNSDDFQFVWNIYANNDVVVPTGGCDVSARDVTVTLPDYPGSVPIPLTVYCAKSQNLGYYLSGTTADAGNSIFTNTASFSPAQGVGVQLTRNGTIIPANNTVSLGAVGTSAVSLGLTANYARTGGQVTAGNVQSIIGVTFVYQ

Biological target: FimH (Escherichia coli, UniProt Q1R2J4)
Conditions: read-out: HA 50% titer; Table 13; Example 6 numbering
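Further: hemagglutination inhibition of guinea pig erythrocytes agglutinated by type 1 piliated uropathogenic E. coli via FimH mannose binding, quantified through serial dilutions of compound.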

## CCCCO[C@H]1O[C@H](CO)[C@@H](O)[C@H](O)[C@@H]1O [Butylman]
  EC50: 125 µM
